Calls of active or inactive are those of the source. No cut-off for these calls is given here.

Experiment [1] has as its system MCF7. Put plainly: Induction of apoptosis in human MCF7 cells assessed as increase in late apoptotic cells incubated for 72 hrs by Annexin V-PE/7-AAD staining based flow cytometric analysis. The class given is functional, cell-based. The settings on record: dose 2.5-10 µM.
Experiment [2] has as its system MCF7. Put plainly: Induction of ERK phosphorylation at Thr202/Tyr204 residue in human MCF7 cells at 10 uM preincubated with U0126 for 1 hrs followed by compound addition and incubated for 24 hrs by Alphascreen assay. Format: cell-based.
For experiment [3], the system named is Mitochondrial membrane. Put plainly: Induction of mitochondrial membrane potential loss in human MCF7 cells assessed as increase in JC-1 cytoplasmic monomers incubated for 48 hrs by JC-1 staining based flow cytometric analysis. The class given is cell membranes. The settings on record: dose 2.5-10 µM.
The test system of experiment [4] is MCF7. The experiment is described as follows: Induction of cell cycle arrest in human MCF7 cells assessed as increase in S phase cells at 5 uM preincubated with U0126 for 1 hrs followed by compound addition and measured after 48 hrs by PI staining based flow cytometric analysis. Format: functional.
Experiment [5] deals with MCF7. Put plainly: Induction of cell cycle arrest in human MCF7 cells assessed as increase in G2/M phase cells at […] incubated for 72 hrs by PI staining based flow cytometric analysis. The class given is functional. The settings on record: dose 2.5 µM.
Experiment [6] deals with MCF7. The experiment is described as follows: Induction of cell cycle arrest in human MCF7 cells assessed as increase in G2/M phase cells at […] incubated for 48 hrs by PI staining based flow cytometric analysis. The class given is functional. To be noted: dose 2.5 µM.
Experiment [7] relates to MCF7. Put plainly: Induction of apoptosis in human MCF7 cells assessed as increase in caspase activity preincubated for 48 hrs followed by carboxyfluorescein-labeled fluoro-methyl ketone peptide addition and measured after 1 hrs by fluorescence based analysis. The class given is functional, cell-based. The settings on record: dose 2.5-10 µM.
Experiment [8] concerns MCF7. The experiment is described as follows: Induction of cell cycle arrest in human MCF7 cells assessed as increase in S phase cells at 5 uM incubated for 48 hrs by PI staining based flow cytometric analysis. The class given is functional.
Experiment [9] deals with MCF7. Put plainly: Effect on total ERK level in human MCF7 cells at 2.5 to 10 uM incubated for 24 hrs by Alphascreen assay. Format: functional, cell-based. The settings on record: dose 2.5-10 µM.
The subject of experiment [10] is MCF7. The experiment is described as follows: Induction of apoptosis in human MCF7 cells assessed as increase in early apoptotic cells incubated for 72 hrs by Annexin V-PE/7-AAD staining based flow cytometric analysis. The class given is functional, cell-based. The settings on record: dose 2.5-10 µM.
Experiment [11] has as its system Mitochondrial membrane. Put plainly: Induction of mitochondrial membrane potential loss in human MCF7 cells assessed as decrease in JC-1 aggregates incubated for 48 hrs by JC-1 staining based flow cytometric analysis. Format: cell membranes. To be noted: dose 2.5-10 µM.
The test system of experiment [12] is MCF7. Put plainly: Induction of cell cycle arrest in human MCF7 cells assessed as increase in sub-G1 phase cells at 10 uM incubated for 72 hrs by PI staining based flow cytometric analysis. Format: functional.
Experiment [13] has as its system MCF7. The experiment is described as follows: Induction of cell cycle arrest in human MCF7 cells assessed as increase in S phase cells at 5 uM incubated for 72 hrs by PI staining based flow cytometric analysis. Format: functional.
Experiment [14] relates to Mitochondrial membrane. The experiment is described as follows: Induction of mitochondrial membrane potential loss in human MCF7 cells at 10 uM incubated for 48 hrs by JC-1 staining based flow cytometric analysis relative to control. Format: cell membranes.
Experiment [15] relates to MCF7. The experiment is described as follows: Induction of ERK phosphorylation at Thr202/Tyr204 residue in human MCF7 cells incubated for 24 hrs by Alphascreen assay. The settings on record: filed as activator, dose 2.5-10 µM. Format: cell-based.
Experiment [16] has as its system MCF7. Put plainly: Induction of cell cycle arrest in human MCF7 cells assessed as increase in sub-G1 phase cells at 10 uM incubated for 48 hrs by PI staining based flow cytometric analysis. Format: functional.

`NS(=O)(=O)c1cc(C(=O)N/N=C/c2ccc(Br)cc2O)c(SCc2ccccc2)cc1Cl`: the Activity entry in the experiment with MCF7 [1] was “Dose-dependent-effect”; in the experiment on Mitochondrial membrane [3] it was “Dose-dependent-effect”; in the experiment on MCF7 [5], “Active; Lower Increase Observed”; in the experiment on MCF7 [7] it was “Dose-dependent-effect”; with MCF7 [10] it was “Dose-dependent-effect”; in the experiment on Mitochondrial membrane [11] it was “Dose-dependent-effect”. Further, the Activity result with MCF7 [12] was “Active; Higher Increase Observed”; in the experiment with MCF7 [13], “Active; Lower Increase Observed”; in the experiment on Mitochondrial membrane [14], 40%; in the experiment on MCF7 [15] it was “Dose-dependent-effect”; with MCF7 [16], “Active; Indication Of Possible Transition To Apoptosis”. Further, the result in the experiment on MCF7 [2], in the experiment on MCF7 [4] and with MCF7 [9] was inactive. Further, the result in the experiment on MCF7 [6] and with MCF7 [8] was Active.
On to `NS(=O)(=O)c1cc(C(=O)N/N=C/c2ccc(Br)cc2O)c(SCc2ccc(F)cc2)cc1Cl`, for which the Activity entry with MCF7 [1] was “Dose-dependent-effect”; with Mitochondrial membrane [3] it was “Dose-dependent-effect”; in the experiment on MCF7 [5], “Active; Lower Increase Observed”; in the experiment with MCF7 [7], “Dose-dependent-effect”; in the experiment with MCF7 [10] it was “Dose-dependent-effect”; with Mitochondrial membrane [11], “Dose-dependent-effect”. Moreover, the Activity entry with MCF7 [12] was “Active; Higher Increase Observed”; in the experiment on MCF7 [13], “Active; Lower Increase Observed”; with Mitochondrial membrane [14], 30%; in the experiment on MCF7 [15], “Dose-dependent-effect”; with MCF7 [16], “Active; Indication Of Possible Transition To Apoptosis”. For the same molecule, the result with MCF7 [2], with MCF7 [4] and in the experiment with MCF7 [9] was inactive. Also, the result in the experiment on MCF7 [6] and in the experiment with MCF7 [8] was Active.

(Values after ChEMBL document CHEMBL6092197, “Novel benzenesulfonamide-aroylhydrazone conjugates as carbonic anhydrase inhibitors that induce MAPK/ERK-mediated cell cycle arrest and mitochondrial-associated apoptosis in MCF-7 breast cancer cells” (Bioorg Med Chem, 2024).)
